Data as given in patent US7396817B2, “Biologically active peptides comprising Isoleucyl-valyl-threonyl-asparaginyl-threonyl-threonine (IVTNTT)” (CMS Peptides Patent Holding Company Limited, priority 2003, dated 2008).

Tested on: T lymphocyte transformation
Assay: ConA-induced T lymphocyte transformation of spleen cells from treated mice (MTT)
Format: in vivo
Conditions: 3 × 10^5 IU/kg/d i.p. for 28 days, BALB/c mice
Method: The BALB/c mice were randomly divided into CMS017 dose I group (200 μg/kg/day), CMS017 dose II group (50 μg/kg/day), recombinant human IL (rhIL)-2 group (3×10^5 IU/kg/day), and saline groups (0.5 ml/day). Twelve mice per group. Test substances were all dissolved in saline and injected intraperitoneally at (i.p.) 0.5 ml/day for 28 continuous days, once per day. The day after the last test substance administration, the mice were sacrificed by cervical dislocation. The spleen was isolated aseptically and manually dispersed in cold D-Hank's solution using an injection needle. The dispersed cell suspension was further sieved through a 100 gauge 150 μm diameter stainless steel sieve. After centrifugation at 200 g for 10 minutes, the supernatant was discarded. The cell pellet was resuspended in 10 volumes of Tris-NH4Cl buffer and then incubated for 10 minutes at room temperature. The suspended cells were collected by centrifugation at 150 g for 10 minutes. The cells were washed 2-4 times with cold D-Hank's solution by resuspending and collecting by centrifugation as described above. The washed cells were then diluted to the desired cell densities in RPMI-1640 culture medium, containing 10% fetal bovine serum. […] An ELISA reader referenced at 630 nm was used to obtain the OD570 nm of each well. […]

IL-2: recombinant human IL (rhIL)-2, positive control group
stimulation index (X ± SD): 2.71 ± 0.35
